Amino acid sequences for entries named in this document (tags omitted).
UniProt P31645, whole entry: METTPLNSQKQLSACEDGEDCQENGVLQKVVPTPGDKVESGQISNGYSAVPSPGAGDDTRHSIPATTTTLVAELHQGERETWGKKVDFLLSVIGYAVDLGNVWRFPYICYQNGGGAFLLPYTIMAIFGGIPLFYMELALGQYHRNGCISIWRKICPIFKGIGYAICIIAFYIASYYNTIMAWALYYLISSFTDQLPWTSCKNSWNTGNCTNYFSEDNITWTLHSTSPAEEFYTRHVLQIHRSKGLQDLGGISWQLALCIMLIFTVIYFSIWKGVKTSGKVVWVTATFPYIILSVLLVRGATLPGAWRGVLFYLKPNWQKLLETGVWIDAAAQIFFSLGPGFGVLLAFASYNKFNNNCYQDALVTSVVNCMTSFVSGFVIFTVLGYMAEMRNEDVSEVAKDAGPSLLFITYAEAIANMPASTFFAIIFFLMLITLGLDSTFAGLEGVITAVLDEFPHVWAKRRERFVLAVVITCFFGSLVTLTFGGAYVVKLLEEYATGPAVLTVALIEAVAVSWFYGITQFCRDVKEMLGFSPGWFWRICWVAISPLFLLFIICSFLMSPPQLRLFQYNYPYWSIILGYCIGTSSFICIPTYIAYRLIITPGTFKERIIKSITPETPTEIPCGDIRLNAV

According to patent publication US20230002377A1, “THERAPEUTIC COMBINATIONS OF DRUGS AND METHODS OF USING THEM” (HARMONY BIOSCIENCES, LLC, priority 2020, published 2023):

What was measured:
[1] = molecular target: T1, Transporter, Serotonin (5-Hydroxytryptamine) (SERT) (Homo sapiens, UniProt P31645)
[2] = molecular target: T1, Transporter, Serotonin (5-Hydroxytryptamine) (SERT); experiment: biochemical; settings: read-out: SERT, % inhibition, 100 nM compound

Row | Structure (SMILES) | SERT, % inhibition ([1]; 10 nM compound, 0.01 µM) [%] | SERT, % inhibition ([1]; 100 nM compound, 0.1 µM) [%] | inhibition at 0.1 µM [2] [%]
1 | [2H]C1([2H])NCC(c2ccc(Cl)c(Cl)c2)c2ccc(-c3ccc4ncnn4c3)cc21 (single isomer, unassigned) [Compound 12A, 7-([1,2,4]triazolo[1,5-a]pyridin-6-yl)-4-(3,4-dichlorophenyl)-1,2,3,4-tetrahydroisoquinoline-1,1-d2] | 54 | 94 | –
2 | [2H]C1([2H])NC([2H])([2H])C([2H])(c2ccc(Cl)c(Cl)c2)c2ccc(-c3ccc4ncnn4c3)cc21 (single isomer, unassigned) [Compound 8A, 7-([1,2,4]triazolo[1,5-a]pyridin-6-yl)-4-(3,4-dichlorophenyl)-1,2,3,4-tetrahydroisoquinoline-1,1,3,3,4-d5] | – | 91 | –
3 | [2H]C1([2H])NCc2cc(-c3ccc4ncnn4c3)ccc2C1([2H])c1ccc(Cl)c(Cl)c1 (single isomer, unassigned) [Compound 16A, 7-([1,2,4]triazolo[1,5-a]pyridin-6-yl)-4-(3,4-dichlorophenyl)-1,2,3,4-tetrahydroisoquinoline-3,3,4-d3] | 59 | 96 | –
4 | [2H]C1([2H])NCC(c2ccc(Cl)c(Cl)c2)c2ccc(-c3ccc4ncnn4c3)cc21 (single isomer, unassigned) [Compound 12B, 7-([1,2,4]triazolo[1,5-a]pyridin-6-yl)-4-(3,4-dichlorophenyl)-1,2,3,4-tetrahydroisoquinoline-1,1-d2] | 21 | 54 | –
5 | [2H]C1([2H])NC([2H])([2H])C([2H])(c2ccc(Cl)c(Cl)c2)c2ccc(-c3ccc4ncnn4c3)cc21 (single isomer, unassigned) [Compound 8B, 7-([1,2,4]triazolo[1,5-a]pyridin-6-yl)-4-(3,4-dichlorophenyl)-1,2,3,4-tetrahydroisoquinoline-1,1,3,3,4-d5] | 34 | 51 | –
6 | [2H]C1([2H])NCc2cc(-c3ccc4ncnn4c3)ccc2C1([2H])c1ccc(Cl)c(Cl)c1 (single isomer, unassigned) [Compound 16B, 7-([1,2,4]triazolo[1,5-a]pyridin-6-yl)-4-(3,4-dichlorophenyl)-1,2,3,4-tetrahydroisoquinoline-3,3,4-d3] | 2 | 46 | –
7 | Clc1ccc(C2CNCc3cc(-c4ccc5ncnn5c4)ccc32)cc1Cl (stereo not drawn) [Formula I, 7-([1,2,4]triazolo[1,5-a]pyridin-6-yl)-4-(3,4-dichlorophenyl)-1,2,3,4-tetrahydroisoquinoline] | – | – | 91

Read-outs that look alike come from different tables or passages of the source.
